# Assay results as given in paper PMC6974733, “Rap1‐mediated nucleosome displacement can regulate gene expression in senescent cells without impacting the pace of senescence”.
# What was measured:
# GST-SANT (S. cerevisiae) = GST-SANT (S. cerevisiae) (UniProt P11938); assay: pull-down; Equimolar GST-Rap1 constructs (2 μM) on glutathione resin and H3/H4 (2 μM). 300 mM NaCl (similar interaction strengths from 150 to 750 mM NaCl). Coomassie stain and anti-H3 immunoblot; H3 signal normalised with full-length Rap1 set as 1.0
# [1] = target: GST-Rap1^SHY (full-length) (S. cerevisiae) (UniProt P11938); assay: pull-down; Equimolar GST-tagged protein (0.5 μM; GST-SANT and its mutants, or full-length Rap1 and Rap1^SHY) on glutathione beads and H3/H4 (0.5 μM). 400 mM NaCl; anti-H3 immunoblot, wild type set to 1.0
substance,measurement,setting,value
histone H3/H4 tetramers (from UniProt P61830 1-136; P02309 1-103) (complex),binding relative to full-length Rap1 (fold of full-length Rap1),GST-SANT (S. cerevisiae),0.5
same,loss of H3/H4 binding signal against full-length wild-type Rap1,[1],50%
